What follows are molecules tested on JAK1-dependent STAT6 phosphorylation downstream of IL-13 stimulation in BEAS-2B cells.

Row | Compound | IC50 [nM]
1 | CN1CCN(C(=O)Cn2cc(Nc3nc4c(N5C[C@H]6CC[C@@H](C5)[C@H]6OCc5cnn(C)c5)cccn4n3)cn2)CC1 [Example 95, 1-(4-methylpiperazin-1-yl)-2-[4-[[8-[(1S,5R)-8-[(1-methylpyrazol-4-yl)methoxy]-3-azabicyclo[3.2.1]octan-3-yl]-[1,2,4]triazolo[1,5-a]pyridin-2-yl]amino]pyrazol-1-yl]ethanone] | 98.8
2 | CN1CCN(C(=O)Cn2cc(Nc3nc4c(N5CC6CCC(C5)N6C(=O)c5cccs5)cccn4n3)cn2)CC1 [Example 76, 1-(4-methylpiperazin-1-yl)-2-[4-[[8-[8-(thiophene-2-carbonyl)-3,8-diazabicyclo[3.2.1]octan-3-yl]-[1,2,4]triazolo[1,5-a]pyridin-2-yl]amino]pyrazol-1-yl]ethanone] | 32.6
3 | CN1CCN(C(=O)Cn2cc(Nc3nc4c(N5CC6CCC(C5)N6C(=O)c5cccc(CC#N)c5)cccn4n3)cn2)CC1 [Example 69, 2-[3-[3-[2-[[1-[2-(4-methylpiperazin-1-yl)-2-oxo-ethyl]pyrazol-4-yl]amino]-[1,2,4]triazolo[1,5-a]pyridin-8-yl]-3,8-diazabicyclo[3.2.1]octane-8-carbonyl]phenyl] acetonitrile] | 304
4 | CCc1cnn([C@@]2(CC#N)[C@@H]3CC[C@H]2CN(c2cccn4nc(Nc5cnn(CC(=O)N6CCN(C)CC6)c5)nc24)C3)c1 [Example 117, 2-[(1R,5S)-8-(4-ethylpyrazol-1-yl)-3-[2-[[1-[2-(4-methylpiperazin-1-yl)-2-oxo-ethyl]pyrazol-4-yl]amino]-[1,2,4]triazolo[1,5-a]pyridin-8-yl]-3-azabicyclo[3.2.1]octan-8-yl]acetonitrile] | 462
5 | CC(CC(F)(F)F)C(=O)N1C2CCC1CN(c1cccn3nc(Nc4cnn(CC(=O)N5CCN(C)CC5)c4)nc13)C2 (centres unmarked) [Example 47, 4,4,4-trifluoro-2-methyl-1-[3-[2-[[1-[2-(4-methylpiperazin-1-yl)-2-oxo-ethyl]pyrazol-4-yl]amino]-[1,2,4]triazolo[1,5-a]pyridin-8-yl]-3,8-diazabicyclo[3.2.1]octan-8-yl]butan-1-one] | 68
6 | CSCCCC(=O)N1C2CCC1CN(c1cccn3nc(Nc4cnn(CC(=O)N5CCN(C)CC5)c4)nc13)C2 [Example 17, 1-[3-[2-[[1-[2-(4-methylpiperazin-1-yl)-2-oxo-ethyl]pyrazol-4-yl]amino]-[1,2,4]triazolo[1,5-a]pyridin-8-yl]-3,8-diazabicyclo[3.2.1]octan-8-yl]-4-methylsulfanyl-butan-1-one] | 24.9
7 | CN1CCN(C(=O)Cn2cc(Nc3nc4c(N5CC6CCC(C5)N6C(=O)Cc5ccncc5)cccn4n3)cn2)CC1 [Example 42, 1-[3-[2-[[1-[2-(4-methylpiperazin-1-yl)-2-oxo-ethyl]pyrazol-4-yl]amino]-[1,2,4]triazolo[1,5-a]pyridin-8-yl]-3,8-diazabicyclo[3.2.1]octan-pyridyl)ethanone] | 232
8 | CN1CCN(C(=O)Cn2cc(Nc3nc4c(N5CC6CCC(C5)N6S(=O)(=O)CCCC(F)(F)F)cccn4n3)cn2)CC1 [Example 174, 1-(4-methylpiperazin-1-yl)-2-[4-[[8-[8-(4,4,4-trifluorobutylsulfonyl)-3,8-diazabicyclo[3.2.1]octan-3-yl]-[1,2,4]triazolo[1,5-a]pyridin-2-yl]amino]pyrazol-1-yl]ethanone] | 88.5
9 | CN(CC1(C#N)CC1)C1CCN(C(=O)Cn2cc(Nc3nc4c(N5CC6CCC(C5)N6C(=O)C5CC(C(F)(F)F)C5)cccn4n3)cn2)CC1 (centres unmarked) [Example 193, 1-[[methyl-[1-[2-[4-[[8-[8-[3-(trifluoromethyl)cyclobutanecarbonyl]-3,8-diazabicyclo[3.2.1]octan-3-yl]-[1,2,4]triazolo[1,5-a]pyridin-2-yl]amino]pyrazol-1-yl]acetyl]-4-piperidyl]amino]methyl]-cyclopropanecarbonitrile] | 46.7
10 | CN1CCN(C(=O)Cn2cc(Nc3nc4c(N5CC6CCCC(C5)N6C(=O)[C@H]5C[C@H](C(F)(F)F)C5)cccn4n3)cn2)CC1 [Example 40, 1-(4-methylpiperazin-1-yl)-2-[4-[[8-[9-[3-(trifluoromethyl)cyclobutanecarbonyl]-3,9-diazabicyclo[3.3.1]nonan-3-yl]-[1,2,4]triazolo[1,5-a]pyridin-2-yl]amino]pyrazol-1-yl]ethanone] | 21.4
11 | CN1CCN(C(=O)Cn2cc(Nc3nc4c(N5CC6CCC(C5)N6C(=O)CC5CSCCS5)cccn4n3)cn2)CC1 (centres unmarked) [Example 9, 2-(1,4-dithian-2-yl)-1-[3-[2-[[1-[2-(4-methylpiperazin-1-yl)-2-oxo-ethyl]pyrazol-4-yl]amino]-[1,2,4]triazolo[1,5-a]pyridin-8-yl]-3,8-diazabicyclo[3.2.1]octan-8-yl]ethanone] | 59.2
12 | CN1CCN(C(=O)Cn2cc(Nc3nc4c(N5CC6CCC(C5)N6S(=O)(=O)C5CC5)cccn4n3)cn2)CC1 [Example 177, 2-[4-[[8-(8-cyclopropylsulfonyl-3,8-diazabicyclo[3.2.1]octan-3-yl)-[1,2,4]triazolo[1,5-a]pyridin-2-yl]amino]pyrazol-1-yl]-1-(4-methylpiperazin-1-yl)ethanone] | 309
13 | CN1CCN(C(=O)Cn2cc(Nc3nc4c(C5=CC6CCC(C5)N6C(=O)CCC(F)(F)F)cccn4n3)cn2)CC1 (centres unmarked) [Example 13, 4,4,4-trifluoro-1-[3-[2-[[1-[2-(4-methylpiperazin-1-yl)-2-oxo-ethyl]pyrazol-4-yl]amino]-[1,2,4]triazolo[1,5-a]pyridin-8-yl]-8-azabicyclo[3.2.1]oct-3-en-8-yl]butan-1-one] | 21.4
14 | CN1CCN(C(=O)Cn2cc(Nc3nc4c(N5CC6CCCC(C5)N6C(=O)CC5CC(F)(F)C5)cccn4n3)cn2)CC1 [Example 97, 2-(3,3-difluorocyclobutyl)-1-[3-[2-[[1-[2-(4-methylpiperazin-1-yl)-2-oxo-ethyl]pyrazol-4-yl]amino]-[1,2,4]triazolo[1,5-a]pyridin-8-yl]-3,9-diazabicyclo[3.3.1]nonan-9-yl]ethanone] | 32.5
15 | CN1CCN(C(=O)Cn2cc(Nc3nc4c(N5CC6CCC(C5)N6C(=O)CC5CC(F)(F)C5(F)F)cccn4n3)cn2)CC1 (centres unmarked) [Example 91, 1-[3-[2-[[1-[2-(4-methylpiperazin-1-yl)-2-oxo-ethyl]pyrazol-4-yl]amino]-[1,2,4]triazolo[1,5-a]alpyridin-8-yl]-3,8-diazabicyclo[3.2.1]octan-8-yl]-2(2,2,3,3-tetrafluorocyclobutyl) ethanone] | 39.2
16 | CSc1ccccc1S(=O)(=O)N1C2CCC1CN(c1cccn3nc(Nc4cnn(CC(=O)N5CCN(C)CC5)c4)nc13)C2 [Example 132, 1-(4-methylpiperazin-1-yl)-2-[4-[[8-[8-(2-methylsulfanylphenyl)sulfonyl-3,8-diazabicyclo[3.2.1]octan-3-yl]-[1,2,4]triazolo[1,5-a]pyridin-2-yl]amino]pyrazol-1-yl]ethanone] | 473
17 | CN1CCN(C(=O)Cn2cc(Nc3nc4c(N5CC6CCC(C5)C6C(=O)N5CC(C(F)(F)F)C5)cccn4n3)cn2)CC1 (centres unmarked) [Example 43, 1-(4-methylpiperazin-1-yl)-2-(4-[[8-(8-[[3-(trifluoromethyl)azetidin-1-yl]carbonyl]-3-azabicyclo[3.2.1]octan-3-yl)-[1,2,4]triazolo[1,5-a]pyridin-2-yl]amino]-1H-pyrazol-1-yl)ethan-1-one] | 58.1
18 | CN1CCN(C(=O)Cn2cc(Nc3nc4c(N5C[C@H]6CC[C@@H](C5)[C@H]6OCc5cccc(C#N)c5)cccn4n3)cn2)CC1 [Example 129, 3-[[(1S,5R)-3-[2-[[1-[2-(4-methylpiperazin-1-yl)-2-oxo-ethyl]pyrazol-4-yl]amino]-[1,2,4]triazolo[1,5-a]pyridin-8-yl]-3-azabicyclo[3.2.1]octan-8-yl]oxymethyl]benzonitrile] | 31.5
19 | CC(C(=O)N1CCN(C)CC1)n1cc(Nc2nc3c(N4CC5CCC(C4)N5C(=O)CCC(F)(F)F)cccn3n2)cn1 (centres unmarked) [Example 103, 4,4,4-trifluoro-1-[3-[2-[[1-[1-methyl-2-(4-methylpiperazin-1-yl)-2-oxo-ethyl]pyrazol-4-yl]amino]-[1,2,4]triazolo[1,5-a]pyridin-8-yl]-3,8-diazabicyclo[3.2.1]octan-8-yl]butan-1-one] | 40
20 | CC(C(=O)N1CCN(C)CC1)n1cc(Nc2nc3c(N4CC5CCC(C4)N5C(=O)C4CC(C(F)(F)F)C4)cccn3n2)cn1 (centres unmarked) [Example 126, 1-(4-methylpiperazin-1-yl)-2-[4-[[8-[8-(3-(trifluoromethyl)-cyclobutanecarbonyl]-3,8-diazabicyclo[3.2.1]octan-3-yl]-[1,2,4]triazolo[1,5-a]pyridin-2-yl]amino]pyrazol-1-yl]propan-1-one] | 165
21 | CN1CCN(C(=O)Cn2cc(Nc3nc4c(N5CC6CCC(C5)N6S(=O)(=O)C5CCCCC5)cccn4n3)cn2)CC1 [Example 178, 2-[4-[[8-(8-cyclohexylsulfonyl-3,8-diazabicyclo[3.2.1]octan-3-yl)-[1,2,4]triazolo[1,5-a]pyridin-2-yl]amino]pyrazol-1-yl]-1-(4-methylpiperazin-1-yl)ethanone; formic acid] | 67.9
22 | CN1CCN(C(=O)Cn2cc(Nc3nc4c(N5CC6CCC(C5)N6S(=O)(=O)c5ccccc5C(F)(F)F)cccn4n3)cn2)CC1 [Example 148, 1-(4-methylpiperazin-1-yl)-2-[4-[[8-[8-(2-(trifluoromethyl)phenyl]sulfonyl-3,8-diazabicyclo[3.2.1]octan-3-yl]-[1,2,4]triazolo[1,5-a]pyridin-2-yl]amino]pyrazol-1-yl]ethanone] | 105
23 | CN(CC1(C#N)CC1)C1CCN(C(=O)Cn2cc(Nc3nc4c(N5CC6CCC(C5)N6C(=O)C5CC(C(F)(F)F)C5)cccn4n3)cn2)CC1 (centres unmarked) [Example 192, 1-[[methyl-[1-[2-[4-[[8-[8-[3-(trifluoromethyl)cyclo-butanecarbonyl]-3,8-diazabicyclo[3.2.1]octan-3-yl]-[1,2,4]triazolo[1,5-a]alpyridin-2-yl]amino]pyrazol-1-yl]acetyl]-4-piperidyl]amino]methyl]-cyclopropanecarbonitrile] | 118
